Measurements reported in patent US9315514B2, “1,3-dioxanomorphides and 1,3-dioxanocodides” (dated 2016).

Assays:
δ-opioid receptor = δ-opioid receptor (Homo sapiens (Human), UniProt P41143); assay: δ-opioid receptor activity in PerkinElmer ligand binding and cellular assays
μ-opioid receptor = μ-opioid receptor (Homo sapiens (Human), UniProt P35372); assay: μ-opioid receptor [35S]GTPγS functional assay; conditions: for μ-opioid receptor Emax: maximal effect relative to DAMGO; for EC50: read-out: μ-opioid receptor EC50, μ GTP EC50
κ-opioid receptor = κ-opioid receptor (Homo sapiens (Human), UniProt P41145); assay: κ-opioid receptor [35S]GTPγS functional assay; conditions: for κ-opioid receptor Emax: maximal effect relative to U69,593

| Compound | δ-opioid receptor activity (δ-opioid receptor) | μ-opioid receptor Emax (μ-opioid receptor) | EC50 (μ-opioid receptor) | κ-opioid receptor Emax (κ-opioid receptor) | EC50 (κ-opioid receptor; read-out: κ-opioid receptor EC50, κ GTP EC50) |
| --- | --- | --- | --- | --- | --- |
| C=CCN1CC[C@]23c4c5ccc(OC)c4O[C@H]2[C@@]24CCC3(C[C@@H]2[C@@](C)(C(C)(C)C)OCO4)[C@H]1C5 | shown δ-opioid receptor activity |  |  |  |  |
| COc1ccc2c3c1O[C@H]1[C@@]45C=C[C@@]6(C[C@@H]4[C@@](C)(C(C)(C)C)OCO5)[C@@H](C2)N(CC2CC2)CC[C@]316 |  | 36% | 460 nM | 40% |  |
| COc1ccc2c3c1O[C@H]1[C@@]45CC[C@@]6(C[C@@H]4[C@@](C)(C(C)(C)C)OCO5)[C@@H](C2)N(CC2CC2)CC[C@]316 |  | 43% |  | 31% | 855 nM |
| C=CCN1CC[C@]23c4c5ccc(O)c4O[C@H]2[C@@]24CC[C@@]3(C[C@@H]2[C@@](C)(C(C)(C)C)OCO4)[C@H]1C5 | shown δ-opioid receptor activity |  |  |  |  |
| CC(C)(C)[C@@]1(C)OCO[C@]23CC[C@@]4(C[C@@H]21)[C@H]1Cc2ccc(OCc5ccccc5)c5c2[C@@]4(CCN1CC1CC1)[C@H]3O5 |  | 56% | 950 nM | 0% |  |
